Consider 1 compound from PMC5897267 (EJNMMI Research, 2018).

Protein sequences, listed by entry. Tags and fused reporters are not part of them.
UniProt Q04609, whole entry: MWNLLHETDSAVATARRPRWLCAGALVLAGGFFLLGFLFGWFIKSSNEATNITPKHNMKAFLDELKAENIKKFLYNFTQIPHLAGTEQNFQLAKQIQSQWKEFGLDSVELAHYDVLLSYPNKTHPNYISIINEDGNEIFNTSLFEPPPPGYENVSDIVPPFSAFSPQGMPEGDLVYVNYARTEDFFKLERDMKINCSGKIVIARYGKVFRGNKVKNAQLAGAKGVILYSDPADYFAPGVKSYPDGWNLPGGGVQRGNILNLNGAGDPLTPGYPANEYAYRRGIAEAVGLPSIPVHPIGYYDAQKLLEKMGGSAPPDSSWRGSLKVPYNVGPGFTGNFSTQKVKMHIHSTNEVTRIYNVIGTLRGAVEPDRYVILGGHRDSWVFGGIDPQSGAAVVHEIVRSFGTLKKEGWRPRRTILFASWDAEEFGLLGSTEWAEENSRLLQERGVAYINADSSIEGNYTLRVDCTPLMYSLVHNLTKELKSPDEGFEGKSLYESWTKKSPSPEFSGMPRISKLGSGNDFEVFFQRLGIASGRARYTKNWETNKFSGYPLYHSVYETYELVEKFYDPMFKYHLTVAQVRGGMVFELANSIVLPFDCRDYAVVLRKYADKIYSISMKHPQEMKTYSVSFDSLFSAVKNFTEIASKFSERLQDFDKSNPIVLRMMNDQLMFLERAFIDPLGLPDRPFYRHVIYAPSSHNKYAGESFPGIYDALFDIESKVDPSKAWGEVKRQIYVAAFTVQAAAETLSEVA

SMILES strings stand for the structures.

This assay concerns the target PSMA (Homo sapiens, UniProt Q04609). Briefly: Competitive binding assay (IC50) on LNCaP cells with ([125I]I-BA)KuE as radioligand. As to conditions: versus EuE-k-FBOA, respectively.

For `O=C(O)CC[C@H](NC(=O)N[C@@H](CCC(=O)N[C@H](CCCCNC(=O)CCNC(=O)c1ccc(F)nc1)C(=O)O)C(=O)O)C(=O)O`, the “PSMA affinity relative to EuE-k-FBOA, F-PSMA-1007 and F-DCFPyl” value is 4- to 12 fold.
